In publication PMC2584039 (Molecular Pain, 2008):
Several values for one entry are separate records, joined by “and”; a condition that tells them apart may be missing. Identical values can stand only once. Like-named read-outs stand apart in the source and are kept apart here.

Amino acid sequences for entries named in this document (tags omitted).
UniProt Q7Z2W7, whole entry: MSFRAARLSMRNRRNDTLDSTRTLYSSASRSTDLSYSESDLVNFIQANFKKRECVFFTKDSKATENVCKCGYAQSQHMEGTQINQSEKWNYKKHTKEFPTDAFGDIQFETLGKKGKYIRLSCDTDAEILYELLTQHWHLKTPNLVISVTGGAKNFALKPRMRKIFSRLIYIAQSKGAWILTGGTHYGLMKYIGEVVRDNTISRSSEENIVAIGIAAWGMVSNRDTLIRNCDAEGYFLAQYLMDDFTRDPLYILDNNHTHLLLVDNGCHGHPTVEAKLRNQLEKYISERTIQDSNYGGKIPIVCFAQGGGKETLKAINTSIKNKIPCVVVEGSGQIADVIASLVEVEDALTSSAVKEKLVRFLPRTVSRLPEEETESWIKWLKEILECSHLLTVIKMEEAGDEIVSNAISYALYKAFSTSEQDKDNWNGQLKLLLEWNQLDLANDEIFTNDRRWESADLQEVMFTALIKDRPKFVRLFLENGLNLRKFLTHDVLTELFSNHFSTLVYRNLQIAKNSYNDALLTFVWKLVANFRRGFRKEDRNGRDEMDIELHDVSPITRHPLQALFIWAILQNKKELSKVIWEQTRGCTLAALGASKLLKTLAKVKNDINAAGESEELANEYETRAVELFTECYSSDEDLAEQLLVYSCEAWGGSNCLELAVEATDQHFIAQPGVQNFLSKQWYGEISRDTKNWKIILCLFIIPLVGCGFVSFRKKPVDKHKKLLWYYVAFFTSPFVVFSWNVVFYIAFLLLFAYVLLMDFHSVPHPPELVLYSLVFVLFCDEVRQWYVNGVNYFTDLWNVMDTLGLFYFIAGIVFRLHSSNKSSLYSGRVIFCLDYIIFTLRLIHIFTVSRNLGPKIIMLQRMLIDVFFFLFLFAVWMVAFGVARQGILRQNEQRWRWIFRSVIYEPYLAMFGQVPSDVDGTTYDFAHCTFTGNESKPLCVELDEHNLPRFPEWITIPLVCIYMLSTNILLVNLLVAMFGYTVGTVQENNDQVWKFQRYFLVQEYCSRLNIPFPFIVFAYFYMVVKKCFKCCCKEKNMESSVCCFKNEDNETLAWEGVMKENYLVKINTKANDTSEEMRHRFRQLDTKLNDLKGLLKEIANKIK

Key:
[1] = system: 48 different enzymes, receptors, and transporters; test: Selectivity panel, radioligand binding or enzymatic assays (MDS Pharma Service); details: 10 μM
thermal sensitivity = test: Hot plate test; details: 100 and 300 mg/kg p.o., 1 hr post dose, 52 degree C
[2] = Plasma concentration by LC-MS/MS after behavioral testing
locomotor coordination = test: Rotarod test of locomotor coordination; details: 100 and 300 mg/kg p.o., 1 hr post dose
[3] = after oral administration in rats; ref US patent application 2007/0219222 A1; cited from earlier work
TRPV4 = details: cited from earlier work
TRPV3 = details: cited from earlier work
[4] = system: CFA-induced mechanical hypersensitivity; test: CFA induced mechanical hypersensitivity, Randall-Selitto test; details: for percent reversal of CFA-induced mechanical hypersensitivity: vehicle 5%
TRPM8 = TRPM8 (Homo sapiens, UniProt Q7Z2W7); test: TRPM8 activation; details: concentrations up to 30 μM
TRPV1 = details: cited from earlier work
formalin response = details: intraperitoneal (IP) administration; cited from earlier work
[5] = system: spinal nerve ligation induced mechanical hypersensitivity; details: one hour post dose; for percent reversal of SNL-induced mechanical hypersensitivity: vehicle 1%

## CC(C)c1ccc(NC(=O)Cn2cnc3c2c(=O)n(C)c(=O)n3C)cc1
[1]
  effect in target screen (41 receptors, ion channels, transporters; 7 enzymes): < 40%
Thermal sensitivity
  thermal latencies on the hot plate test vs vehicle: no significant differences
[2]; AITC study, 100 mg/kg p.o., 100 mg/kg
  average plasma exposure (± SEM): 5.10 (± 0.67) μM and 5.1 μM
[2]; AITC study, 300 mg/kg p.o., 300 mg/kg
  average plasma exposure (± SEM): 9.74 (± 0.37) μM and 9.7 μM
[2]; CFA study, 100 mg/kg p.o., immediately after testing
  average plasma exposure (± SEM): 8.23 (± 0.55) μM
[2]; CFA study, 300 mg/kg p.o., immediately after testing
  average plasma exposure (± SEM): 16.33 (± 1.86) μM
[2]; SNL study, 100 mg/kg p.o., immediately after testing
  average plasma exposure (± SEM): 6.09 (± 1.25) μM
[2]; SNL study, 300 mg/kg p.o., immediately after testing
  average plasma exposure (± SEM): 7.55 (± 0.91) μM
[2]; hot plate test, 100 mg/kg p.o.
  average plasma exposure (± SEM): 4.99 (± 0.69) μM
[2]; hot plate test, 300 mg/kg p.o.
  average plasma exposure (± SEM): 7.21 (± 0.58) μM
[2]; rotarod experiment, 100 mg/kg p.o.
  average plasma exposure (± SEM): 4.31 (± 0.36) μM
[2]; rotarod experiment, 300 mg/kg p.o.
  average plasma exposure (± SEM): 10.93 (± 0.44) μM
Locomotor coordination
  latency to fall off the rotarod vs vehicle: no significant differences
[3]
  Tmax: 45 min
TRPV4
  block of TRPV4 activation by 4α-PDD: does not block
TRPV3
  block of TRPV3 activation by 2-APB: does not block
[4]; 100 mg/kg p.o., 1 hr post dosing
  percent reversal of CFA-induced mechanical hypersensitivity: 28%
[4]; 300 mg/kg p.o., 1 hr post dosing
  percent reversal of CFA-induced mechanical hypersensitivity: 35%
[4]; 100 and 300 mg/kg p.o.
  effect on mechanical thresholds for the uninjected paw: neither dose of HC-030031 had an impact
[4]; HC-030031 100 and 300 mg/kg, naproxen 20 mg/kg, p.o., 1 hr post dosing
  effect on mechanical hypersensitivity of the injected paw vs vehicle: significantly attenuated
TRPM8
  block of TRPM8 activation: did not block
TRPV1
  block of TRPV1 activation by capsaicin: does not block
Formalin response
  flinching in both phases of the formalin response: significantly reduced
[5]; 100 mg/kg p.o.
  percent reversal of SNL-induced mechanical hypersensitivity: 24%
[5]; 300 mg/kg p.o.
  percent reversal of SNL-induced mechanical hypersensitivity: 41%
[5]; HC-030031 300 mg/kg, pregabalin 20 mg/kg, p.o.
  effect on SNL mechanical hypersensitivity vs vehicle: significant attenuation
